Data as given in patent publication US8506930B2, “Compounds having affinity for amyloid” (Nihon Medi-Physics Co., Ltd., priority 2006, dated 2013).

The chains behind the UniProt entries cited, without tags or fusion partners. Residues count along the entry.
UniProt P05067, 672-711 limits assumed: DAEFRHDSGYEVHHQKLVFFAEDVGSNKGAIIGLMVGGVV
UniProt P05067, 672-713 limits assumed: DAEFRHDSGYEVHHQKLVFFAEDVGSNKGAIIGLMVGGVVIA

Legend:
[1] = biological target: T1, amyloid (aggregated Aβ1-40) (Homo sapiens, UniProt P05067); experiment: Measurement of affinity with amyloid (inhibition of [125I]3′-I-BTA-0 binding), Examples I-8 to I-12; details: [125I]3′-I-BTA-0 400 pmol/L, amyloid 1 μmol/L, 0.1% bovine serum albumin-containing phosphate buffer (pH 7.4)
T1 construct: Aβ1-40 (Peptide Institute, INC.) was dissolved in phosphate buffer (pH 7.4); purchased Peptide Institute, INC
Procedure: (1) Aβ1-40 (Peptide Institute, INC.) was dissolved in phosphate buffer (pH 7.4) and shaken at 37° C. for 62-72 hours, to obtain a 1 mg/mL suspension of aggregated Aβ (hereinafter referred to as amyloid suspension in this Example).
(5) Samples in which [^125I]3′-I-BTA-0, each compound for evaluation and amyloid were dissolved in a 0.1% bovine serum albumin-containing phosphate buffer (pH 7.4) at final concentrations shown in Table 1-2 were prepared. The resulting samples were filled in each well (about 0.3 mL in volume) of a 96-well microplate.
(6) The microplate filled with the sample solutions was shaken at a given rate (400 rpm) at 22° C. for 3 hours. […]
(7) The glass fiber filter used for the filtration of each sample solution was washed with a 0.1% bovine serum albumin-containing phosphate buffer (pH 7.4) (0.5 mL×5), and radioactivity of the glass fiber filter was measured with an autowell gamma system (manufactured by Aloka, Type: ARC-301B).
(§1) The measured radioactivity level was defined as the background radioactivity level, and used in the calculation of the inhibition ratio (hereinafter referred to as BG).
(9) Using the radioactivity levels measured above in (7) and (8), the inhibition ratio was determined by the following formula (1-1). […]

[2] = biological target: T2, amyloid (aggregated Aβ1-42) (Homo sapiens, UniProt P05067); experiment: Measurement of affinity with amyloid (inhibition of [125I]3′-I-BTA-0 binding), Example II-7; details: [125I]3′-I-BTA-0 400 pmol/L, amyloid 1 μmol/L, 1% bovine serum albumin-containing phosphate buffer (pH 7.4)
T2 construct: Aβ1-42 (Wako) was dissolved in phosphate buffer (pH 7.4); purchased Wako
Source text: Then, each sample solution was filtered through a glass fiber filter (trade name: Mulutiscreen™-FC, manufactured by Millipore), to separate the [^125I]3′-I-BTA-0 attached to amyloid from the free [^125I]3′-I-BTA-0.
as §1
A graph in which values converted by probit transformation from the obtained inhibition ratios were plotted relative to logarithms of concentrations of compounds for evaluation was prepared to obtain an approximate straight line by the least square method.

Cc1ccc2c(c1)sc(-c1ccc(N(C)C)cc1)[n+]2C [Thioflavin T]
IC50 [1]: > 1000 nM | IC50 [2]: > 1000 nM
